This is an account of results in patent publication US9884067B2, “Androgen receptor down-regulating agents and uses thereof” (UNIVERSITY OF MARYLAND EASTERN SHORE, priority 2013, dated 2018).

The test system of this assay is full-length AR. As to the kind of experiment: Down-regulation of full-length AR, western blot in CWR22rv1 cells. Format: cell-based, human. To be noted: CWR22rv1 prostate cancer cell line. A general note: In western blotting, separated proteins are transferred to a membrane and probed.

For the molecule `CNC(=O)c1ccc(N2C(=S)N(c3ccc(C#N)c(C(F)(F)F)c3)C(=O)C2(C)C)cc1F` [MDV3100 (6), enzalutamide, reference compound], the “down-regulation of full-length AR” value is recorded as “did not affect the expression levels”.
